Earlier results in patent publication US20040038428A1, “Protein microarrays” (priority 2000, published 2004).

The chains behind the UniProt entries cited, without tags or fusion partners.
UniProt P62942, whole entry: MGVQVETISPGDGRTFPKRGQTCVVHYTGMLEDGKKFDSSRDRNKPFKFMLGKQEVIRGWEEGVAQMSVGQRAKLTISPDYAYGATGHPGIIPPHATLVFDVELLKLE

Target: FKBP12 (Homo sapiens, UniProt P62942)
Details: read-out: dissociation constants for FKBP12; cited from earlier work

Structure (SMILES): CCC(C)(C)C(=O)C(=O)N1CCCC[C@H]1C(=O)OC(CCc1ccc(OC)c(OC)c1)c1cccc(OCC(=O)O)c1 (stereo partly shown)
- Kd: 8.8 nM
